Results as given in PubChem BioAssay AID540303 (National Center for Advancing Translational Sciences (NCATS), 2011).
The list shows a part of the results, in another mix than the full data. Inconclusive results are not listed. Active and inactive are the calls of the source. Calls follow the shape of the dose curve; as a rule, active = well fitted inhibition curve with a large enough effect; inconclusive = small, poorly fitted or top-dose-only effect; inactive = no such curve, though single readings can be large or run the other way; tested in mouse RAW 264.7 cells.
% is scaled to controls: 0 for no effect and ±100 for the full control effect; potency is read from the fitted curve at half-maximal effect.

Test: qHTS for Inhibitors of Cell Surface uPA Generation; also: nearly all actives have a fitted effect of over 55% in size
Conditions: cell surface uPA generation assay; series mostly up to 38.3 µM; activity change, negative = inhibition: at the top concentration
From the text: The overall objective of this project is to perform a quantitative high throughput screen (qHTS) to identify novel compounds that inhibit the generation of cell surface urokinase activity. The urokinase plasminogen activator (uPA) is one of the two primary endogenous systems that mediate plasminogen activation into plasmin. Members of this system, including uPA and its receptor (uPAR), are overexpressed in several malignant tumors. This system plays a major role in adhesion, migration, invasion and metastasis of cancer cells. Small molecule inhibitors of the uPA system will serve as probes to understand the molecular mechanisms of the uPA cascade and better understanding the microenvironmental circumstances that facilitate the activation of plasminogen by uPA, and finally may provide novel candidate agents for anticancer drug therapy.
[…] […] Upon inhibition of the uPA activation cascade, the subsequent cell surface uPA activity-dependent translocation of LF into the cytoplasm is inhibited. ATP-Lite is used to measure intracellular ATP concentrations, which remain increased if LF entry into the cytoplasm is inhibited. This validation assay was performed using a small set of validation compounds.
NIH Chemical Genomics Center [NCGC]
NIH Molecular Libraries Probe Centers Network [MLPCN]
Assay Submitter (PI): Thomas Bugge, National Institute of Dental and Craniofacial Research, NIH
Cultured RAW 264.7 were dispensed into 1536-well clear bottom, white walled tissue culture plates at a density of 4000 cells/well and were incubated overnight (12-16 h) at 37 C in a 5% CO2 incubator. Serially diluted compounds in 23 nl DMSO were added to cells. […] Compound and reagent-treated plates were incubated for 24 h at 37 C in a 5% CO2 incubator. Perkin Elmer ATPlitetrade mark 1 step (3 ul) was then added to each well. Luminescence was detected using a Perkin Elmer ViewLuxtrade mark plate reader.
1.Dispensing RAW 264.7 cells into 1536-well, white walled tissue culture plates at a density of 4000 cells/well (4 uL).
2.Incubation at 37 C in a 5% CO2 incubator overnight.
3.Serially diluting compounds (1:5 serial dilution; 0.0024 uM to […] final concentration) in 23 nl DMSO.
5.Incubating the compound and reagent-treated plates for 24 hours at 37 C in a 5% CO2 incubator.
6.Adding ATP-Lite (3 ul).
7.Reading plates by ViewLux with an exposure length of 5 seconds.
For `Cc1ccc2nc3c(c(C)c2c1)CC(C(Cl)Cl)S3` (configuration not stated), the “activity change, negative = inhibition” value was inactive: -10.4%.
In the case of `Cc1ccc(OP(=O)(Nc2ccc([N+](=O)[O-])cn2)Oc2ccc(C)cc2)cc1`, the “activity change, negative = inhibition” value is reported as inactive: 2.72%.
In the case of `CC(C)c1ccc(OP(=O)(Nc2ccccn2)Oc2ccccc2F)cc1` (configuration not stated), the “activity change, negative = inhibition” value is reported as inactive: 8.49%.
For `COC(=O)C1(C)COP(=O)(N2CCCCCC2)OC1` (configuration not stated), the “activity change, negative = inhibition” value was inactive: -0.313%.
With `ClCCSc1nnc(-c2cccnc2)o1` the “activity change, negative = inhibition” value was inactive: -0.181%.
In the case of `O=C(OC1CN2CCC1CC2)c1cccc2[nH]cnc12` (configuration not stated), the “activity change, negative = inhibition” value is reported as inactive: -0.202%.
For `CCN(CC)C(=S)SC(NC=O)C(Cl)(Cl)Cl` (configuration not stated), the “activity change, negative = inhibition” value was inactive: 5.26%.
With `CC(C)NC(=O)NP(=O)(Oc1ccccc1)Oc1ccccc1` the “activity change, negative = inhibition” value was inactive: 0.609%.
For `O=[N+]([O-])c1cc([N+](=O)[O-])c(-c2ccn[nH]2)s1`, the Potency was active: 12.6 µM.
For `O=C(OC1CN2CCC1CC2)C12CC3CC(CC(C3)C1)C2` (configuration not stated), the “activity change, negative = inhibition” value was inactive: -2.9%.
In the case of `Cc1cc(=O)[nH]c(N[N+](=O)[O-])n1`, the “activity change, negative = inhibition” value is reported as inactive: 2.62%.
With `Cc1c2c(nc3ccccc13)SC(C(Cl)Cl)C2` (configuration not stated) the “activity change, negative = inhibition” value was inactive: -16.8%.
In the case of `COc1ccc2nc(NP(=O)(c3ccccc3)c3ccccc3)sc2c1`, the “activity change, negative = inhibition” value is reported as inactive: 2.9%.
In the case of `COc1cc(I)ccc1[As](=O)(O)O`, the “activity change, negative = inhibition” value is reported as inactive: -0.746%.
For `O=P1(N(CCCl)CCCl)Nc2ccccc2N1`, the “activity change, negative = inhibition” value was inactive: -1.41%.
For `O=P1(N(CCCl)CCCl)OCCCN1CCCl` (configuration not stated), the “activity change, negative = inhibition” value was inactive: -1.61%.
In the case of `COc1ccc(N/C(=N/P(=O)(N2CCOCC2)N2CCOCC2)N2CCOCC2)cc1`, the “activity change, negative = inhibition” value is reported as inactive: 1.19%.
With `O=[N+]([O-])c1cc(Oc2ccc([N+](=O)[O-])cc2C(F)(F)F)cc([N+](=O)[O-])c1` the “activity change, negative = inhibition” value was inactive: 3.14%.
With `COP1(=S)c2c(C)nn(CCC#N)c2N=C(c2ccc(F)cc2)N1C` (configuration not stated) the “activity change, negative = inhibition” value was inactive: 1.51%.
With `O=C(COc1ccccc1)OC1CN2CCC1CC2` (configuration not stated) the “activity change, negative = inhibition” value was inactive: 0.0152%.
With `O=C(Nc1ccncc1[N+](=O)[O-])c1ccc([N+](=O)[O-])cc1[N+](=O)[O-]` the “activity change, negative = inhibition” value was inactive: -15.1%.
For `CCOC(=O)c1ccc(NC(=O)C(C)(CCl)SC)cc1` (configuration not stated), the “activity change, negative = inhibition” value was inactive: -2.5%.
With `O=C(OC1CN2CCC1CC2)c1cccc([N+](=O)[O-])c1` (configuration not stated) the “activity change, negative = inhibition” value was inactive: -5.58%.
In the case of `CCC(C)N(CC(C)C)C(=S)SC(NC(C)=O)C(Cl)(Cl)Cl` (configuration not stated), the “activity change, negative = inhibition” value is reported as inactive: 3.41%.
In the case of `CC1CCNP(=O)(N(CCCl)CCCl)O1` (configuration not stated), the “activity change, negative = inhibition” value is reported as inactive: -2.46%.
With `CCOC(=O)Nc1ccc([As](=O)(O)O)c(O)c1` the “activity change, negative = inhibition” value was inactive: -0.791%.
In the case of `CCCCOc1ccc(C(=O)NCC2(N3CCCCC3)CCCCC2)cc1OC`, the “activity change, negative = inhibition” value is reported as inactive: -2.08%.
For `Cc1cc(SC(NC(=O)c2ccccc2)C(Cl)(Cl)Cl)nc(C(C)C)n1` (configuration not stated), the “activity change, negative = inhibition” value was inactive: 3.6%.
For `CCOC(=O)Nc1cccc([As](=O)(O)O)c1`, the “activity change, negative = inhibition” value was inactive: 2.19%.
With `O=[N+]([O-])c1ccc(Nc2ccc(Oc3ccc([N+](=O)[O-])cc3[N+](=O)[O-])cc2)c([N+](=O)[O-])c1` the “activity change, negative = inhibition” value was inactive: 4.2%.
In the case of `Cc1cc(SC(NC=O)C(Cl)(Cl)Cl)ncn1` (configuration not stated), the “activity change, negative = inhibition” value is reported as inactive: 0.214%.
For `O=P(Nc1ccccn1)(c1cccc2ccccc12)c1cccc2ccccc12`, the “activity change, negative = inhibition” value was inactive: -2.83%.
